According to patent publication EP4567040A1, “CRYSTAL FORM OF FUSED TRICYCLIC DERIVATIVE AND PREPARATION METHOD” (Jiangsu Hengrui Pharmaceuticals Co., Ltd., priority 2022, dated 2024):

Target: T1, human PXR (Homo sapiens, UniProt O75469)
T1 construct: host or cells: DPX2 (HepG2 stably transfected)
T1 sequence (O75469 1-434): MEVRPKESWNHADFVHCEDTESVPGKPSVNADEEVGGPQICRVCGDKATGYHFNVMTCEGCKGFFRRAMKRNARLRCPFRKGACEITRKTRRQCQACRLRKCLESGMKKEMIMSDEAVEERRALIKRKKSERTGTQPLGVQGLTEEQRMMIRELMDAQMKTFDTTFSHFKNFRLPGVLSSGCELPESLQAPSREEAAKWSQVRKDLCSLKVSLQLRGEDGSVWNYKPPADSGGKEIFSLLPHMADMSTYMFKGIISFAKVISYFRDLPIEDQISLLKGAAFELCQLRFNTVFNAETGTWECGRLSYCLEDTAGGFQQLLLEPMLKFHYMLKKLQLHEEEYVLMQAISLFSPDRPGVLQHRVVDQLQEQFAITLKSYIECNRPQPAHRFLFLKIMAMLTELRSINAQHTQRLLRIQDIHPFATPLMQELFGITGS
Assay: PXR induction assay in DPX2 cells (luciferase reporter)
Format: cell-based
Procedure: • 1. The potential of the test compounds to induce the activity of drug metabolism enzymes through in vitro activation of PXR was evaluated. EC50 values for the test compounds were obtained by assessing the in vitro activation of PXR by different concentrations of the test compounds (30, 10, 3.33, 1.11, 0.370, and 0.123 µM). The concentrations of the positive control rifampicin were 20, 5, 1.25, 0.312, 0.0781, and 0.195 µM. • 2. Materials and reagents • 1) DPX2 (HepG2 cells were stably transfected with the human PXR gene and the fluorescent reporter gene) cells were purchased from Puracyp (Carlsbad, CA). • 2) The test compounds were provided by the sponsor; the control drug (rifampicin) was purchased from Sigma (St. Louis, MO). • 3) The CellTiter-Fluor™ cell viability assay kit and the One-Glo fluorescence assay kit were purchased from Promega (Madison, WI); fetal bovine serum (FBS) was purchased from Corning (Manassas, VA); the MTS3 shaker was purchased from IKA Labortechnik (Staufen, Germany); DMEM, penicillin, and streptomycin were purchased from local suppliers; hygromycin B and G418 were purchased from Merck (Darmstadt, Germany); the cell culture medium and DPX2 cells were purchased from Puracyp Inc. • 3. Experimental procedures • 3.1. […]

SMILES: CO[C@H]1/C=C/O[C@@]2(C)Oc3c(C)c(O)c4c(O)c(c(/C=N/N5CCN(C)CC5)c(O)c4c3C2=O)NC(=O)/C(C)=C\C=C\[C@H](C)[C@H](O)[C@@H](C)[C@@H](O)[C@@H](C)[C@H](OC(C)=O)[C@@H]1C [Rifampicin, reference compound]
- fold induction at 24 h, 0.0195 µM (compound concentration 0.0195 µM): 1.33
- fold induction at 24 h, 20 µM (compound concentration 20.0 µM): 17.6
